Data published in PMC6650940, “Investigations of Accessibility of T2/T3 Copper Center of Two-Domain Laccase from Streptomyces griseoflavus Ac-993” (International Journal of Molecular Sciences, 2019).

Amino acid sequences for entries named in this document (tags omitted). Residues count along the entry.
UniProt A0A0M4FJ81, 40-322: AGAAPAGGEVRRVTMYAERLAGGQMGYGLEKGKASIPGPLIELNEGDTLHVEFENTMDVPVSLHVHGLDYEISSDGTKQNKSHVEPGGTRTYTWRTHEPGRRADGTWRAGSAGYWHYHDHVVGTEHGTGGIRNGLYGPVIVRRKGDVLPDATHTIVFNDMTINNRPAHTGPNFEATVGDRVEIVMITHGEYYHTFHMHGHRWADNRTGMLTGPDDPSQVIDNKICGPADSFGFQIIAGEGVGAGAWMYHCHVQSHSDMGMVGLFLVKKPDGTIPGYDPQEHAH

Molecular target: SgfSL wt (two-domain laccase, Streptomyces griseoflavus Small Laccase) (Streptomyces griseoflavus, UniProt A0A0M4FJ81)
Experiment: inhibition of ABTS oxidation
Conditions: ABTS as substrate, pH 4.0, 30 °C

## [N-]=[N+]=N
  % residual activity at 10 mM NaN3: 53.9%
